AlphaSeq binding of Ab-14 light chain variants to a spike HR2 peptide

Source: Engelhart et al. 2022 (doi:10.1038/s41597-022-01779-4), MIT Lincoln Laboratory and A-Alpha Bio; data file from the FLAb repository.

The target is the same throughout: PDVDLGDISGINAS, from the HR2 region of SARS-CoV-2 spike.

The variants keep the heavy chain, the linker and the frameworks of Ab-14 (scFv order VH, the linker GGGGSGGGGSGGGGS, VL).
VH: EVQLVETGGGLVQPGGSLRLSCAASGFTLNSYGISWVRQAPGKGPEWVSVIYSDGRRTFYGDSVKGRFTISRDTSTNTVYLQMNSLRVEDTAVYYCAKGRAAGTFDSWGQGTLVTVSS
VL: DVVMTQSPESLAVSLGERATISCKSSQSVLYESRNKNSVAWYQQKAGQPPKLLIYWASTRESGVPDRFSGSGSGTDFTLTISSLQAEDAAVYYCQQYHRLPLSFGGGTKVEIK

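The starting antibody came from a phage panning campaign against this peptide. Variants in AAYL50 differ from the parent at up to three CDR positions; double and triple changes were sampled at random. In AlphaSeq, yeast of one mating type display the scFv and yeast of the other type display the target. Mating (16 h, 30 °C) was followed by selection of diploids and sequencing of their barcodes. A regression on co-assayed BCL2-family reference pairs converts the normalised counts of each replicate to an apparent Kd. The assay was run in three technical replicates.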

The parent's light chain CDRs are KSSQSVLYESRNKNSVA, WASTRES, QQYHRLPLS; each variant's own CDRs replace them letter for letter.
Only single mutants are listed, position by position.
Values are apparent Kd, the geometric mean of the replicates that gave a signal; lower means stronger binding.
"no signal" means that the variant was in the library but no mating with the target was seen in any replicate; the authors take this as a sign of poor binding, and no number exists.
For reference, the parent read 4.4 nM as the reference entry and 48 nM as a member of this library.
Empty control strains, which show no peptide, gave a signal in 18% of pairings with library AAYL50; the median was 15 µM and 95% of these signals were weaker than 970 nM. No background was subtracted. For each scFv, signals with the empty controls are counted beside the result.

| CDR-L1 | CDR-L2 | CDR-L3 | Kd | seen in | empty controls |
|---|---|---|---|---|---|
| KSSQSVLYESRNKNSVN | WASTRES | QQYHRLPLS | 14 µM | 1 of 3 | 4 of 9 |
| KSSQSVLYESRNKNSVL | WASTRES | QQYHRLPLS | 2.0 µM | 2 of 3 | 0 of 9 |
| KSSQSVLYESRNKNSVV | WASTRES | QQYHRLPLS | 100 µM | 1 of 3 | 5 of 9 |
| KSSQSVLYESRNKNSVW | WASTRES | QQYHRLPLS | 12 µM | 1 of 3 | 2 of 9 |
| KSSQSVLYESRNKNSVI | WASTRES | QQYHRLPLS | no signal | 0 of 3 | 0 of 9 |
| KSSQSVLYESRNKNSVG | WASTRES | QQYHRLPLS | 3.4 µM | 2 of 3 | 2 of 9 |
| KSSQSVLYESRNKNSVP | WASTRES | QQYHRLPLS | no signal | 0 of 3 | 0 of 9 |
| KSSQSVLYESRNKNSVM | WASTRES | QQYHRLPLS | no signal | 0 of 3 | 1 of 9 |
| KSSQSVLYESRNKNSVE | WASTRES | QQYHRLPLS | 85 µM | 2 of 3 | 4 of 9 |
| KSSQSVLYESRNKNSVC | WASTRES | QQYHRLPLS | no signal | 0 of 3 | 1 of 9 |
| KSSQSVLYESRNKNSVD | WASTRES | QQYHRLPLS | no signal | 0 of 3 | 1 of 9 |
| KSSQSVLYESRNKNSVR | WASTRES | QQYHRLPLS | no signal | 0 of 3 | 1 of 9 |
| KSSQSVLYESRNKNSVH | WASTRES | QQYHRLPLS | 16 µM | 1 of 3 | 2 of 9 |
| KSSQSVLYESRNKNSVQ | WASTRES | QQYHRLPLS | 3.7 µM | 1 of 3 | 1 of 9 |
| KSSQSVLYESRNKNSVK | WASTRES | QQYHRLPLS | 160 µM | 1 of 3 | 3 of 9 |
| KSSQSVLYESRNKNSVA | TASTRES | QQYHRLPLS | 8.7 nM | 3 of 3 | 1 of 9 |
| KSSQSVLYESRNKNSVA | AASTRES | QQYHRLPLS | 2.0 nM | 3 of 3 | 6 of 9 |
| KSSQSVLYESRNKNSVA | KASTRES | QQYHRLPLS | 7.0 nM | 3 of 3 | 1 of 9 |
| KSSQSVLYESRNKNSVA | QASTRES | QQYHRLPLS | 3.3 nM | 3 of 3 | 0 of 9 |
| KSSQSVLYESRNKNSVA | PASTRES | QQYHRLPLS | 10 µM | 1 of 3 | 0 of 9 |
| KSSQSVLYESRNKNSVA | YASTRES | QQYHRLPLS | 9.2 µM | 1 of 3 | 2 of 9 |
| KSSQSVLYESRNKNSVA | EASTRES | QQYHRLPLS | 590 pM | 3 of 3 | 1 of 9 |
| KSSQSVLYESRNKNSVA | VASTRES | QQYHRLPLS | 100 µM | 1 of 3 | 3 of 9 |
| KSSQSVLYESRNKNSVA | HASTRES | QQYHRLPLS | 13 nM | 3 of 3 | 2 of 9 |
| KSSQSVLYESRNKNSVA | CASTRES | QQYHRLPLS | 12 nM | 3 of 3 | 1 of 9 |
| KSSQSVLYESRNKNSVA | GASTRES | QQYHRLPLS | 990 pM | 3 of 3 | 1 of 9 |
| KSSQSVLYESRNKNSVA | IASTRES | QQYHRLPLS | 98 µM | 1 of 3 | 4 of 9 |
| KSSQSVLYESRNKNSVA | RASTRES | QQYHRLPLS | 11 nM | 3 of 3 | 2 of 9 |
| KSSQSVLYESRNKNSVA | SASTRES | QQYHRLPLS | 530 µM | 1 of 3 | 3 of 9 |
| KSSQSVLYESRNKNSVA | DASTRES | QQYHRLPLS | 5.5 nM | 3 of 3 | 0 of 9 |
| KSSQSVLYESRNKNSVA | MASTRES | QQYHRLPLS | 2.2 µM | 1 of 3 | 0 of 9 |
| KSSQSVLYESRNKNSVA | WCSTRES | QQYHRLPLS | no signal | 0 of 3 | 0 of 9 |
| KSSQSVLYESRNKNSVA | WDSTRES | QQYHRLPLS | 9.9 nM | 3 of 3 | 3 of 9 |
| KSSQSVLYESRNKNSVA | WMSTRES | QQYHRLPLS | 8.3 µM | 1 of 3 | 2 of 9 |
| KSSQSVLYESRNKNSVA | WWSTRES | QQYHRLPLS | no signal | 0 of 3 | 1 of 9 |
| KSSQSVLYESRNKNSVA | WISTRES | QQYHRLPLS | 940 nM | 2 of 3 | 0 of 9 |
| KSSQSVLYESRNKNSVA | WPSTRES | QQYHRLPLS | no signal | 0 of 3 | 1 of 9 |
| KSSQSVLYESRNKNSVA | WESTRES | QQYHRLPLS | 23 nM | 3 of 3 | 3 of 9 |
| KSSQSVLYESRNKNSVA | WRSTRES | QQYHRLPLS | 210 nM | 2 of 3 | 2 of 9 |
| KSSQSVLYESRNKNSVA | WTSTRES | QQYHRLPLS | 10 nM | 3 of 3 | 1 of 9 |
| KSSQSVLYESRNKNSVA | WVSTRES | QQYHRLPLS | 430 µM | 1 of 3 | 0 of 9 |
| KSSQSVLYESRNKNSVA | WSSTRES | QQYHRLPLS | 23 nM | 3 of 3 | 1 of 9 |
| KSSQSVLYESRNKNSVA | WGSTRES | QQYHRLPLS | 55 nM | 3 of 3 | 2 of 9 |
| KSSQSVLYESRNKNSVA | WNSTRES | QQYHRLPLS | no signal | 0 of 3 | 2 of 9 |
| KSSQSVLYESRNKNSVA | WKSTRES | QQYHRLPLS | 190 nM | 3 of 3 | 1 of 9 |
| KSSQSVLYESRNKNSVA | WLSTRES | QQYHRLPLS | 1.3 µM | 3 of 3 | 1 of 9 |
| KSSQSVLYESRNKNSVA | WAVTRES | QQYHRLPLS | 940 nM | 2 of 3 | 1 of 9 |
| KSSQSVLYESRNKNSVA | WATTRES | QQYHRLPLS | 9.8 nM | 3 of 3 | 1 of 9 |
| KSSQSVLYESRNKNSVA | WAQTRES | QQYHRLPLS | no signal | 0 of 3 | 3 of 9 |

For reference, 4 entries of the list once more:

| CDR-L1 | CDR-L2 | CDR-L3 | Kd | seen in | empty controls |
|---|---|---|---|---|---|
| KSSQSVLYESRNKNSVA | WCSTRES | QQYHRLPLS | no signal | 0 of 3 | 0 of 9 |
| KSSQSVLYESRNKNSVA | CASTRES | QQYHRLPLS | 12 nM | 3 of 3 | 1 of 9 |
| KSSQSVLYESRNKNSVA | WVSTRES | QQYHRLPLS | 430 µM | 1 of 3 | 0 of 9 |
| KSSQSVLYESRNKNSVA | WESTRES | QQYHRLPLS | 23 nM | 3 of 3 | 3 of 9 |